Apparent affinities of Ab-14 variants for a coronavirus HR2 peptide

Target: peptide PDVDLGDISGINAS, taken from heptad repeat 2 (HR2) of SARS-CoV-2 spike.

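Phage display of a naive human antibody library on the peptide gave the parent. These sequences belong to a second round, designed from the earlier measurements on random variants of the parent. Group labels follow the data file (Ctrl: baseline library sampled from a position-specific scoring matrix, with some repeated check sequences; Rand: our label for a block that the file lists under HC and that is probably the random mutants of the ten best first-round binders; GP: Gaussian process model; HC: hill climbing; Gen: genetic algorithm; Gibbs: Gibbs sampling; a sequence that several methods proposed may carry one label only). Affinity was read by AlphaSeq, a pooled yeast mating assay with surface-displayed partners. Binding brings cells together so that they mate, and sequencing counts the barcode pairs among the diploids. The ratio of observed to expected reads was calibrated, replicate by replicate, on BCL2-family standards whose Kd was known from biolayer interferometry. There are six technical replicates.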

Ab-14 is the parent antibody, in scFv form: VH, then three GGGGS repeats, then VL. The heavy chain is unchanged in all variants.
VH: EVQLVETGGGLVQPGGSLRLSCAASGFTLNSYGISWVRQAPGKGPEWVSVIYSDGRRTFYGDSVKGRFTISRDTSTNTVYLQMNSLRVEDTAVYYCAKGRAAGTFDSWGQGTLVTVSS
VL: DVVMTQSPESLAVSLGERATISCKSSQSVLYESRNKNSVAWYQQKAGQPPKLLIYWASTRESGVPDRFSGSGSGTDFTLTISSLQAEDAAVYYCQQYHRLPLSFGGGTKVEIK

Substitutions are numbered in sequence along the VL above, starting at 1 (not Kabat).
This list holds designs with at most six substitutions.
Values are log10 of the apparent Kd in nM; lower means stronger binding.
Averages over replicates are reported, and they cover detected replicates only.
"nd" means that the variant was in the library but no mating with the target was seen in that replicate; the authors take this as a sign of poor binding, and no number exists.
Of ten entries with the parent sequence, four were seen in most replicates (averages 0.34 to 2.37), three in one and three in none, so single entries are noisy.
The authors averaged sequences with at least three values out of six and counted those with two or fewer as poor binders.
Values of this round are not directly comparable with the first-round values of the same sequences.
Three control strains display no target. For all light chain designs, 4% of the pairings with them gave a signal, with a median of 2.64 and one signal in twenty below 1.59, so weak values seen in few replicates may be background. The control count says in how many pairings with the empty strains this scFv gave a signal.

S25Y+S28L+L30P+Y31E+W56N+S62E [GP_Gibbs]: 0.17, 0.10, 0.06, -0.11, 0.05, 0.08 (mean 0.06; controls 2 of 18).
S25A+V29D+Y31D+A57S [Ctrl]: 0.38, 1.16, nd, 1.27, 0.32, 1.31 (mean 0.89; controls 1 of 18).
A57T+S62E+R99W [Ctrl]: nd, 2.61, 1.91, 1.91, 1.45, nd (mean 1.97; controls 0 of 18).
S25L+S26P+V29E+N35M+W56N [GP_Gen]: 0.15, 0.10, -0.08, -0.24, 0.08, 0.13 (mean 0.02; controls 1 of 18).
S25L+S26Q+L30G+W56N+E61L [GP_Gen]: 0.13, 0.43, 0.27, 0.40, 0.02, 0.75 (mean 0.33; controls 0 of 18).
S25F+S26Q+W56G+E61L [GP_Gen]: -0.13, -0.03, -0.12, -0.15, 0.01, 0.13 (mean -0.05; controls 2 of 18).
R99G [Ctrl]: nd, 1.33, nd, nd, 2.54, nd (mean 1.93; controls 0 of 18).
S25Q+V29W+L30G+Y31G+W56H+T59K [GP_Gibbs]: 1.37, 1.67, 1.91, 1.01, 0.93, 1.27 (mean 1.36; controls 1 of 18).
Q27T+S33N+W56N+S62E [Ctrl]: 0.23, -0.26, 0.09, -0.59, -0.31, -0.34 (mean -0.20; controls 0 of 18).
Q95Y+R99T [Ctrl]: nd, nd, nd, nd, nd, nd (controls 2 of 18).
S25L+S26Y+Q27G+W56G+T59Q+S62K [GP_Gibbs]: 0.28, 0.21, 0.18, 0.34, 0.02, 0.40 (mean 0.24; controls 2 of 18).
Y31G+R34N+H98Q [Ctrl]: nd, nd, nd, nd, nd, nd (controls 0 of 18).
S25L+V29W+W56S+A57G [GP_HC]: -0.50, -0.32, -0.19, -0.42, -0.46, -0.22 (mean -0.35; controls 0 of 18).
K36N+Q95E+Y97R+L102W [Ctrl]: nd, nd, nd, nd, nd, nd (controls 0 of 18).
S25L+Y31M+W56E+S62M [GP_Gen]: -0.37, -0.36, -0.25, -0.29, -0.40, -0.22 (mean -0.31; controls 0 of 18).
W56S+Q95S [Ctrl]: 2.77, 2.09, 3.88, 4.71, 2.24, 2.67 (mean 3.06; controls 2 of 18).
K24C+S26L+K36N+V39P+W56H+S62D [Rand]: nd, nd, nd, nd, nd, nd (controls 0 of 18).
K24S+R34V+S58F [Ctrl]: 0.67, nd, nd, nd, nd, nd (controls 0 of 18).
K24R+Q27N+Y31E+N35E+W56S [Ctrl]: 0.20, 0.17, -0.03, 0.03, 0.28, 0.62 (mean 0.21; controls 0 of 18).
S25L+L30P+W56E+S58N [GP_Gen]: -0.01, -0.19, -0.29, -0.39, -0.40, -0.16 (mean -0.24; controls 1 of 18).
S25I+K36S+S38A+W56E+Q96D [GP_Gibbs]: 0.29, 0.06, 0.45, 0.34, -0.03, 0.24 (mean 0.22; controls 0 of 18).
S25V+V29W+W56N+T59Q+S62D [GP_Gen]: -0.28, -0.37, -0.32, -0.55, -0.33, -0.12 (mean -0.33; controls 0 of 18).
S25Q+S28E+V29K+W56D+A57G [GP_HC]: -0.15, -0.23, -0.33, -0.48, -0.38, -0.48 (mean -0.34; controls 0 of 18).
Q27P+R34Q+W56M [Ctrl]: 1.87, 2.15, 1.00, 2.35, 1.30, 1.54 (mean 1.70; controls 0 of 18).
V29L+L30S+E32T+N37Q+W56E [Ctrl]: 0.67, 0.46, 0.52, 0.57, 0.51, 0.41 (mean 0.53; controls 1 of 18).
V29G+K36M+W56D+E61S [Ctrl]: 0.07, -0.18, -0.14, -0.10, -0.16, 0.11 (mean -0.07; controls 1 of 18).
S26G+S28G+W56G+T59Q+E61W+S62F [Rand]: 0.36, 0.34, 0.79, 0.46, 0.30, 1.50 (mean 0.62; controls 0 of 18).
K24H+S25L+Q27P+L30E+W56N [GP_HC]: 0.20, -0.04, -0.51, 0.01, -0.24, -0.32 (mean -0.15; controls 0 of 18).
S26G+S28G+V29D+W56G+T59Q+E61W [GP_HC]: -0.01, -0.29, -0.21, -0.32, -0.20, 0.09 (mean -0.16; controls 2 of 18).
S25Q+S26R+Q27E+L30Y+R34F+Q96T [Ctrl]: nd, 1.50, nd, nd, nd, nd (controls 0 of 18).
S26L+W56H+S62D+Q96D [GP_HC]: 0.48, 0.55, 0.40, 0.21, 0.25, 0.36 (mean 0.38; controls 1 of 18).
K24W+R99W [Ctrl]: nd, nd, nd, nd, 1.33, nd (controls 0 of 18).
S33G+A57H [Ctrl]: nd, nd, nd, nd, nd, nd (controls 0 of 18).
S25F+W56D+S58N [GP_HC]: -0.20, -0.38, -0.82, -0.77, -0.70, -0.24 (mean -0.52; controls 1 of 18).
S25L+S26P+V29N+W56N [GP_Gen]: 0.04, -0.12, -0.19, -0.25, -0.28, -0.10 (mean -0.15; controls 2 of 18).
S25L+V29D+W56N+Q96D [GP_Gen]: -0.07, -0.18, -0.34, -0.54, -0.52, -0.19 (mean -0.31; controls 2 of 18).

Top 5 of the variants detected in all replicates, tightest first:

changes,group,"replicates, log10 nM","log10 Kd (nM), mean",signal with controls
S25F+W56D+S58N,GP_HC,"-0.20, -0.38, -0.82, -0.77, -0.70, -0.24",-0.52,1/18
S25L+V29W+W56S+A57G,GP_HC,"-0.50, -0.32, -0.19, -0.42, -0.46, -0.22",-0.35,0/18
S25Q+S28E+V29K+W56D+A57G,GP_HC,"-0.15, -0.23, -0.33, -0.48, -0.38, -0.48",-0.34,0/18
S25V+V29W+W56N+T59Q+S62D,GP_Gen,"-0.28, -0.37, -0.32, -0.55, -0.33, -0.12",-0.33,0/18
S25L+Y31M+W56E+S62M,GP_Gen,"-0.37, -0.36, -0.25, -0.29, -0.40, -0.22",-0.31,0/18

Data: MIT Lincoln Laboratory AlphaSeq set, Li et al. 2023, doi:10.1038/s41467-023-39022-2, as distributed in FLAb.